Laboratory results taken from publication PMC8903076 (Journal of medicinal chemistry, 2021).

Tests used:
[1] = cited from earlier work
[2] = mice, single dose 5 mg/kg i.v., plasma sampled from 15 min, LC/MS/MS

CSCC[C@H](NC(=O)[C@H](CC(C)C)NC(=O)[C@H](Cc1c[nH]c2ccccc12)NC(=O)[C@H](CCC(N)=O)NC(=O)[C@@H](NC(=O)[C@H](Cc1ccccc1)NC(=O)[C@H](CC(=O)O)NC(=O)[C@H](CCC(N)=O)NC(=O)[C@H](C)NC(=O)[C@H](CCCN=C(N)N)NC(=O)[C@H](CCCN=C(N)N)NC(=O)[C@H](CO)NC(=O)[C@H](CC(=O)O)NC(=O)[C@H](CC(C)C)NC(=O)[C@H](Cc1ccc(O)cc1)NC(=O)[C@H](CCCCN)NC(=O)[C@H](CO)NC(=O)[C@H](Cc1ccc(O)cc1)NC(=O)[C@H](CC(=O)O)NC(=O)[C@H](CO)NC(=O)[C@@H](NC(=O)[C@H](Cc1ccccc1)NC(=O)[C@@H](NC(=O)CNC(=O)[C@H](CCC(N)=O)NC(=O)[C@H](CO)NC(=O)[C@@H](N)Cc1c[nH]cn1)[C@@H](C)O)[C@@H](C)O)C(C)C)C(=O)N[C@@H](CC(N)=O)C(=O)N[C@H](C(=O)O)[C@@H](C)O [Glucagon]
plasma half-life [1]: in a couple of minutes | detection in blood after dosing (in words) [2]: not found in blood after 15 min
